The values below come from patent publication US12070443B2, “Methods of treating and preventing breast cancer with S-equol” (The Board of Regents of the University of Texas System, priority 2018, dated 2024).

Amino acid sequences for entries named in this document (tags omitted).
UniProt Q92731, whole entry: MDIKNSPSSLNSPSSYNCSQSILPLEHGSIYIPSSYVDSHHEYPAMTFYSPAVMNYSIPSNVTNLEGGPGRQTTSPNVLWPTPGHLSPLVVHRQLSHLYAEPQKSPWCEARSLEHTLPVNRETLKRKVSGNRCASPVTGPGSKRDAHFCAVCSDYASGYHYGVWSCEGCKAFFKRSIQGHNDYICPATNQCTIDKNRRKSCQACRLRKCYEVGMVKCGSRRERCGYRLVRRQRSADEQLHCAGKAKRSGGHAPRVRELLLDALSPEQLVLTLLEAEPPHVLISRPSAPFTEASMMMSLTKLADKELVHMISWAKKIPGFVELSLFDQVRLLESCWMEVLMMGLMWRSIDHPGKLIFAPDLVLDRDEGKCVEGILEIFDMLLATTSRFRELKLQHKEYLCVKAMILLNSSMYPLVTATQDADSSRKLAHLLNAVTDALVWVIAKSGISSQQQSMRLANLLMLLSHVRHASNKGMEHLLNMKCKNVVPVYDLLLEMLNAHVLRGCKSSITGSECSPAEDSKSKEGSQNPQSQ

This assay deals with T1, ERβ pY36 (Homo sapiens, UniProt Q92731).
T1 construct: MDA-MB-231, a human TNBC breast cancer cell line; endogenous in cells; host or cells: MDA-MB-231 (human TNBC line; also as xenograft tumours in athymic nude mice)
Put plainly: pY36-specific phosphorylation signal in MDA-MB-231 cells. The format is cell-based. The conditions noted are these: MDA-MB-231 cells (FIG. 18A).

Regarding `C[C@]12CC[C@@H]3c4ccc(O)cc4CC[C@H]3[C@@H]1CC[C@@H]2O` [17-β-estradiol, reference compound], the pY36-specific phosphorylation signal entry is reported as “enhanced”.
